# Experimental data reported in US10183949B2, “Pyrimidinone derivative having autotaxin-inhibitory activity” (The University of Tokyo, priority 2014, dated 2019).
# Molecular target: Human autotaxin enzyme (Homo sapiens, UniProt Q13822)
# Experiment: Evaluation of autotaxin inhibitor, 18:0 Lyso PC / choline assay (Test Example 2)
# Settings: read-out: Inhibitor activity (IC50), 18:0 Lyso PC substrate, room temperature 2 hours
# Description: Solution B containing 100 mM Tris-HCl buffer (pH7.5), 150 mM NaCl, 5 mM MgCl2, and 0.05% Triton X-100 was prepared. Human autotaxin enzyme (purchased from R&D System) was diluted with Solution B, and 2.5 μl of which was added to a solution of test compound in DMSO. Furthermore, 2.5 μl of 200 μM 18:0 Lyso PC (purchased from Avanti Polar Lipids) in Solution B was added and allowed to react at room temperature for 2 hours. After completion of the reaction, 15 μl of the coline assay reagent. (100 mM Tris-HCl buffer (pH7.5), 5 mM. MgCl2, 77 μg/ml coline oxidase, 10 μg/ml peroxydase, 25μM 10-acetyl-3,7-dihydroxyphenoxazine, and excess autotaxin inhibitor) was added and allowed to react at room temperature for 20 minutes. The fluorescent dye Resorufin, which was produced by the reaction, was detected. The fluorescence was detected using ViewLux
# (PerkinElmer, Inc.) with a excitation wavelength of 531 nm and a fluorescence wavelength of 598 nm.
# The percent inhibition of the test compound was calculated by assuming the sample with no test compound as 0% inhibition and the sample with no enzyme as 100% inhibition, and the percent inhibitions at different concentrations of the test compound were plotted to obtain a concentration-dependent curve.
row,IC50,SMILES
1,10 to 100 nM,Cc1nc(-c2ccc(Cl)cc2NC(=O)C2CC2)cc(=O)n1CC(=O)N1CCN(C(N)=O)CC1
2,100 to 1000 nM,CCCCNc1nc(-c2ccc(OC(F)(F)F)cc2CC#N)cc(=O)n1Cc1ccccc1
3,100 to 1000 nM,CC(C)(C)C(=O)Nc1cc(Cl)ccc1-c1cc(=O)n(CC(=O)Nc2ccnc(O)c2)cn1
4,> 1000 nM,CCCCNc1nc(-c2cc(F)ccc2CNC(=O)OC(C)(C)C)cc(=O)n1Cc1ccccc1
5,> 1000 nM,CC(C)(C)C(=O)Nc1cc(Cl)ccc1-c1cc(=O)n(CC(=O)N2CCC3(COC3)C2)cn1
6,100 to 1000 nM,CC(C)(C)C(=O)Nc1cc(Cl)ccc1-c1cc(=O)n(CC(=O)N2CCC(O)CC2)cn1
7,100 to 1000 nM,CC(C)(C)C(=O)Nc1cc(Cl)ccc1-c1cc(=O)n(CC(=O)Nc2cccnc2O)cn1
8,100 to 1000 nM,CCCCCNc1nc(-c2ccc(C(F)(F)F)cc2)cc(=O)n1Cc1ccc(C(=O)NCCC(=O)O)cc1
9,10 to 100 nM,CC(C)(C)C(=O)Nc1cc(Cl)ccc1-c1cc(=O)n(CC(=O)NCc2c[nH]nn2)cn1
